PglD inh: PglD (C. jejuni) enzyme inhibition | purified PglD enzyme, DTNB colorimetric CoA detection | inhibition, % at 12.5 µM | hit rate 0.098% among 360,000; in the data active = inhibition above about 16%, passing the limit was not always enough
RAD54 inh: blocks human RAD54 Holliday junction branch migration | Q92698 | FAM/BHQ fluorescence | inhibition, % at 10.4 µM | hit rate 0.14% among 360,000 | AID 602329;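 active = mean normalized replicate activity at least 40 and at least half of replicates scoring 40 or more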;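 note: inhibitors cause a drop in the FAM fluorescence signal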
CASP6 VEID inh: inhibitors of human caspase-6. P55212. purified caspase-6, Z-VEID-R110 cleavage fluorescence. inhibition, % at 12.5 µM. hit rate 0.53% among 350,000. AID 686996;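 active = mean inhibition across replicates at least about 35%, with every replicate also reaching that limit, limit read from the data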
Yeast UUG start-1: modulators of yeast start codon fidelity, primary screen, whole organism, S. cerevisiae, single point, plate reader; S. cerevisiae UUG-firefly luciferase reporter, luminescence/redox ratio; activity score, % at 18.7 µM; 0.13% of 350,000 active; AID 602363, 2012;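 active = replicate mean at a twofold rise or more, about +100% in these data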;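 also: firefly luciferase made from a UUG start codon reports start codon fidelity; reporter light over untreated wells divided by growth signal over untreated wells; some hits fall short of that in this replicate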
INS-1E GSIS act: primary screen for activators of insulin secretion dependent on glucose, INS-1E cells, GLuc reporter luminescence; INS-1E GLuc reporter insulin secretion, 2-3 h; activation, % at 16.6 µM; hit rate 0.61% among 370,000; AID 743287;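 active = lowest replicate activation of at least 40%, so every replicate reaches that level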
RAD52 inh: inhibitors of human RAD52 DNA annealing. recombinant RAD52 DNA annealing, FRET fluorescence. AID 651710. inhibition, % at 18.7 µM. hit rate 0.46% among 360,000. P43351;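 active = every replicate showing at least 50% inhibition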
Yeast UUG start-2: yeast start codon fidelity modulation | activation, % at 38 µM | shares compounds with Yeast UUG start-1 | S. cerevisiae UUG-start firefly luciferase, luminescence, 4 h; 100% means double the DMSO signal | 540 tested, under 10 active | AID 652061;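 active = signal increase whose fitted curve reaches an absolute level of 40 at a concentration under 10 µM; inactive = activity opposite to the expected increase, or the rest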
Each line names hits and unclear results; the compound was inactive in the other large screens (follow-up assays come after a bar, where they were run); ! = not active in a repeat. Most compounds without a hit are left out; they make up all but 1.5% or so of the library.

COc1ccc(S(=O)(=O)n2nc(OC(=O)c3ccccc3)cc2N)cc1	none (no result: CASP6 VEID inh, INS-1E GSIS act, RAD52 inh)
Cc1cccc(NC(=O)Cn2c(=O)n3nc(CCn4nc(C)cc4C)nc3c3ccccc32)c1	none (no result: CASP6 VEID inh, RAD52 inh)
N/C(=N\S(=O)(=O)c1ccc(Cl)s1)c1ccccc1	Yeast UUG start-1 117.4 (no result: CASP6 VEID inh, INS-1E GSIS act, RAD52 inh) | Yeast UUG start-2 inactive
CC(C)C[C@@H](CNCC(=O)[C@H](CC(C)C)NC(=O)c1[nH]cnc1C(=O)N[C@@H](C)CN)NC(=O)c1nc[nH]c1C(=O)N[C@@H](C)C(=O)O	Yeast UUG start-1 135.2 | Yeast UUG start-2 inactive
CC(C)C[C@@H](CN)NC(=O)c1nc[nH]c1C(=O)N[C@@H](Cc1c[nH]c2ccccc12)C(=O)CNC[C@H](C)NC(=O)c1nc[nH]c1C(=O)N[C@@H](C)C(=O)O	Yeast UUG start-1 166.5 | Yeast UUG start-2 inactive
CC(C)C[C@@H](CNCC(=O)[C@H](CC(=O)O)NC(=O)c1[nH]cnc1C(=O)N[C@H](CN)CC(C)C)NC(=O)c1nc[nH]c1C(=O)N[C@@H](C)C(=O)O	Yeast UUG start-1 137.5 | Yeast UUG start-2 inactive
C/C(=N/NC(=O)c1cccc(N2CCCC2=O)c1)c1ccc(Br)cc1	none
COc1cc2c(cc1OC)C(c1ccc(Cl)cc1)CC(=O)N2 (configuration not stated)	none
COc1cccc(C#Cc2cnc3c(c2)C(=O)N([C@@H](C)CO)C[C@H](C)[C@@H](CN(C)C(=O)C2CCOCC2)O3)c1	none
C[C@@H]1CN([C@H](C)CO)C(=O)c2cc(C#CC3CCCCC3)cnc2O[C@@H]1CN(C)Cc1cccnc1	none
C[C@H]1CN([C@@H](C)CO)C(=O)c2cc(C#CCc3ccccc3)cnc2O[C@H]1CN(C)CC1CC1	none (no result: PglD inh, RAD54 inh, CASP6 VEID inh, Yeast UUG start-1, RAD52 inh)
Cc1noc(C)c1NC(=O)N(C)C[C@H]1Oc2ncc(C#CC3CCCCC3)cc2C(=O)N([C@H](C)CO)C[C@@H]1C	Yeast UUG start-1 12.4 | Yeast UUG start-2 inactive
C[C@@H]1CN([C@@H](C)CO)C(=O)c2cc(C#CCc3ccccc3)cnc2O[C@H]1CN(C)CC1CCCC1	Yeast UUG start-1 167.3 | Yeast UUG start-2 inactive
COc1cccc(C#Cc2cnc3c(c2)C(=O)N([C@H](C)CO)C[C@H](C)[C@H](CN(C)C(=O)C2CCOCC2)O3)c1	Yeast UUG start-1 125.5 | Yeast UUG start-2 inactive
C[C@@H]1CN([C@H](C)CO)C(=O)c2cc(C#CC3CCCCC3)cnc2O[C@H]1CN(C)Cc1cccnc1	Yeast UUG start-1 161.5! | Yeast UUG start-2 inactive
CCOC(=O)CSc1nc(C(C)C)nc2ccccc12	none (no result: CASP6 VEID inh, INS-1E GSIS act, RAD52 inh)
CCC(=O)N(C)C[C@H]1Oc2ncc(C#CCC3CCCC3)cc2C(=O)N([C@H](C)CO)C[C@@H]1C	none
C[C@H]1CN([C@@H](C)CO)C(=O)c2cc(C#CCC3CCCC3)cnc2O[C@@H]1CN(C)C(=O)CC1CC1	Yeast UUG start-1 120.7! | Yeast UUG start-2 inactive
COc1ccc(NC(=O)CSc2nc3[nH]ncc3c(=O)n2-c2ccccc2C)cc1OC	none (no result: PglD inh, RAD54 inh, CASP6 VEID inh, Yeast UUG start-1, RAD52 inh)
O=C(CN1CCN(S(=O)(=O)c2cccc(F)c2)CC1)Nc1ccnn1C1CCCC1	none (no result: PglD inh, RAD54 inh, Yeast UUG start-1)
O=C(Cc1c(F)cccc1Cl)Nc1ccccc1-c1ccccc1	Yeast UUG start-1 539.9 | Yeast UUG start-2 inactive
COc1ccc(-c2cnc3c(c2)C(=O)N([C@H](C)CO)C[C@@H](C)[C@H](CN(C)Cc2cccnc2)O3)cc1	none
C[C@H](CO)N1C[C@H](C)[C@H](CN(C)Cc2ccncc2)Oc2ncc(-c3cccc(C#N)c3)cc2C1=O	Yeast UUG start-1 109.8 | Yeast UUG start-2 inactive
C[C@H](CO)N1C[C@H](C)[C@@H](CN(C)Cc2ccncc2)Oc2ncc(-c3cccc(C#N)c3)cc2C1=O	none
COc1ccccc1-c1cnc2c(c1)C(=O)N([C@@H](C)CO)C[C@@H](C)[C@@H](CN(C)Cc1ccncc1)O2	Yeast UUG start-1 137.2 | Yeast UUG start-2 inactive
C[C@H](CO)N1C[C@H](C)[C@@H](CN(C)Cc2cncnc2)Oc2ncc(/C=C/c3ccccc3)cc2C1=O	Yeast UUG start-1 249.8 | Yeast UUG start-2 inactive
COc1ccccc1-c1cnc2c(c1)C(=O)N([C@H](C)CO)C[C@@H](C)[C@H](CN(C)Cc1ccncc1)O2	none
COc1ccc(-c2cnc3c(c2)C(=O)N([C@@H](C)CO)C[C@@H](C)[C@H](CN(C)Cc2cccnc2)O3)cc1	Yeast UUG start-1 144.8 | Yeast UUG start-2 inactive
COc1ccc2c(c1)C(C)=CC(C)(C)N2S(=O)(=O)c1ccc(NC(C)=O)cc1	none
CCCCc1nnc(NC(=O)c2ccc(N3CCCC3=O)cc2)s1	none
COc1ccc(C(CNC(=O)c2cccc(N(C)C)c2)N2CCCC2)cc1 (configuration not stated)	none (no result: CASP6 VEID inh, INS-1E GSIS act, RAD52 inh)
CC(NC(=O)c1ccco1)C(=O)Nc1nccs1 (configuration not stated)	none (no result: Yeast UUG start-1, INS-1E GSIS act)
C[C@@H]1CN([C@@H](C)CO)C(=O)c2cc(-c3cccnc3)cnc2O[C@H]1CN(C)C(=O)c1ccccc1F	Yeast UUG start-1 166.1 | Yeast UUG start-2 inactive
COc1ccccc1-c1cnc2c(c1)C(=O)N([C@@H](C)CO)C[C@@H](C)[C@H](CN(C)C(=O)c1cccnc1)O2	Yeast UUG start-1 199.6! | Yeast UUG start-2 inactive
C[C@H](CO)N1C[C@H](C)[C@@H](CN(C)C(=O)c2ccccc2F)Oc2ncc(-c3cccnc3)cc2C1=O	none
COc1ccccc1-c1cnc2c(c1)C(=O)N([C@H](C)CO)C[C@H](C)[C@H](CN(C)C(=O)c1cccnc1)O2	none
COc1ccccc1N1CCN(CC(=O)NCc2ccc(Cl)cc2)CC1	none
CC(C)Nc1nc(NCCO)nc2ccccc12	none (no result: PglD inh, RAD54 inh, Yeast UUG start-1)
OCCNc1nc(NCc2ccccc2)c2ccccc2n1	Yeast UUG start-1 154.6 | Yeast UUG start-2 inactive
CC1C/C(=C/c2ccncc2)C(=O)/C(=C/c2ccncc2)C1 (configuration not stated)	Yeast UUG start-1 302.0 | Yeast UUG start-2 inactive
COc1ccc(CN2C(=O)COc3ccccc32)cc1	none
O=C1COc2ccccc2N1Cc1ccc(Cl)cc1	Yeast UUG start-1 167.3 (no result: INS-1E GSIS act) | Yeast UUG start-2 inactive
COc1ccc(CCNC(=O)C2CCC(CNS(=O)(=O)c3ccc(F)cc3)CC2)cc1OC (configuration not stated)	none (no result: PglD inh, RAD54 inh, Yeast UUG start-1)
O=C(Cn1cc(C(=O)C2CCCCC2)c2ccccc21)NCC1CCCO1 (configuration not stated)	none (no result: PglD inh) | Yeast UUG start-2 inactive
CCN(CC)C(=O)C(=O)c1cn(CC(=O)NCC2CCCO2)c2ccccc12 (configuration not stated)	none (no result: PglD inh, RAD54 inh, Yeast UUG start-1)
O=C(Cn1cc(C(=O)c2cccs2)c2ccccc21)NCC1CCCO1 (configuration not stated)	none (no result: CASP6 VEID inh, INS-1E GSIS act, RAD52 inh) | Yeast UUG start-2 inactive
CCC(=O)c1cn(CC(=O)NCC2CCCO2)c2ccccc12 (configuration not stated)	none (no result: CASP6 VEID inh, INS-1E GSIS act, RAD52 inh) | Yeast UUG start-2 inactive
